For the assay, the target named is T1, Phosphatidylinositol 4,5-bisphosphate 3-kinase catalytic subunit delta isoform (Homo sapiens, UniProt O00329).
T1 sequence (O00329 whole entry): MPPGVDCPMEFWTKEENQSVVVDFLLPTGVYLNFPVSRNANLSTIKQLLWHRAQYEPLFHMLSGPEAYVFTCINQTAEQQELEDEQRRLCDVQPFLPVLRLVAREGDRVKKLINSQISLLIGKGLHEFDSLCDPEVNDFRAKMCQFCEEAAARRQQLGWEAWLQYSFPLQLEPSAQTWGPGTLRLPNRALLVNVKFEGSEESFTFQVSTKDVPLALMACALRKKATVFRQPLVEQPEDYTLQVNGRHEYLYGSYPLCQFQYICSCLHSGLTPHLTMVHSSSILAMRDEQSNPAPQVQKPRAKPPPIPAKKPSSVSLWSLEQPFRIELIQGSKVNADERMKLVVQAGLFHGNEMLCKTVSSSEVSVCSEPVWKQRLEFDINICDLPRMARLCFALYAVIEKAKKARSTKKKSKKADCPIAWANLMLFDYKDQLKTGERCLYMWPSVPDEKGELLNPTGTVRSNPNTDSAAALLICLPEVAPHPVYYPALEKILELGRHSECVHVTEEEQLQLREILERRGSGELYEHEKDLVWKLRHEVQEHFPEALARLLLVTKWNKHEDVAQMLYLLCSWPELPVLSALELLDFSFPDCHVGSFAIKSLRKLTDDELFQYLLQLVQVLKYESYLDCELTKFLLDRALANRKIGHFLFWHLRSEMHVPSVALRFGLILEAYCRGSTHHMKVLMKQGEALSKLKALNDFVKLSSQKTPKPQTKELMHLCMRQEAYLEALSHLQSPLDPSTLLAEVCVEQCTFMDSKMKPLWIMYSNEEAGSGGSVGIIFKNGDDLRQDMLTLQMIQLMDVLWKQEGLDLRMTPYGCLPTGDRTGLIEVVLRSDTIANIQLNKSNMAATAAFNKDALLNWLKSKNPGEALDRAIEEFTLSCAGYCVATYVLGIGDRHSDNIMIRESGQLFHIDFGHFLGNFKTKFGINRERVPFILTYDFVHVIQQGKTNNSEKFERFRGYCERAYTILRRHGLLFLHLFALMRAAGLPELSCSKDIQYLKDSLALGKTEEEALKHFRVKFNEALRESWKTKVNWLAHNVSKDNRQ
The experiment in a line: PI3K Delta Assay: In some embodiments, the PI3Kδ inhibitor is selective. By ¿selective¿ is meant that the compound binds to or inhibits a kinase with greater affinity or potency, respectively, compared to at least one other kinase. In some embodiments, the PI3Kδ inhibitors are selective inhibitors of PI3Kδ (e.g., over PI3Kα, PI3Kβ and PI3Kγ). In some embodiments, selectivity can be at least about 2-fold, 5-fold, 10-fold, at least about 20-fold, at least about 50-fold, at least about 100-fold, at least about 200-fold, at least about 500-fold or at least about 1000-fold. Selectivity can be measured by methods routine in the art. In some embodiments, selectivity can be tested at the Km ATP concentration of each enzyme. In some embodiments, the selectivity of compounds described herein can be determined by cellular assays associated with particular PI3K kinase activity.
As a reminder, the IC50 is the concentration at which inhibition is half-maximal. A higher IC50 goes with weaker potency. Compound `Cc1csc2nc([C@H](C)Nc3ncnc4[nH]cnc34)c(-c3cccc(F)c3)c(=O)n12` [DEZAPELISIB] came in with an IC50 of less than 50 nM.

In turn, `Cc1csc2nc(C(C)Nc3ncnc4[nH]cnc34)c(-c3cccc(F)c3)c(=O)n12` (stereo not drawn) showed an IC50 of less than 50 nM.

`CC(Nc1ncnc2[nH]cnc12)c1cc(Cl)c2ccnnc2c1-c1cccc(F)c1` (single isomer, unassigned) yielded an IC50 of less than 50 nM.

Source of the values: ChEMBL document CHEMBL5725483, “Pyrrolopyrimidine derivatives as TAM inhibitors” (2018).
